In patent US5104858A, “Sensitizing multidrug resistant cells to antitumor agents” (priority 1988, dated 1992):
“Also recorded” adds a separate entry of the source.

What was measured:
dopamine receptors = details: cited from earlier work
MCF-7/DOX cells [1] = assay: Antagonism of multidrug resistance (sensitization to doxorubicin) in MCF-7/DOX cells, MDR Ratio
MCF-7 cells = details: 3 hours, 15 μM doxorubicin; 3 μM cis- or 6 μM trans-flupenthixol
acute schizophrenia = details: clinical trial, Johnston et al; cited from earlier work
MCF-7/DOX cells [2] = details: 50% inhibition of MCF-7/DOX cell growth, 48 hours

OCCN1CCN(CC/C=C2/c3ccccc3Sc3ccc(C(F)(F)F)cc32)CC1 [cis-Flupenthixol]
dopamine antagonism (dopamine receptors): powerful antagonist of dopamine receptors | MDR Ratio (IC50 doxorubicin alone / IC50 doxorubicin in presence of modifier) (MCF-7/DOX cells [1]): 4.8 | effect on accumulation of doxorubicin in the sensitive line (MCF-7 cells): no significant effect | antipsychotic effect (acute schizophrenia): potent neuroleptic; also recorded: far more effective than trans-flupenthixol

OCCN1CCN(CC/C=C2\c3ccccc3Sc3ccc(C(F)(F)F)cc32)CC1 [trans-Flupenthixol]
interaction of doxorubicin and trans-flupenthixol by isobologram analysis (MCF-7/DOX cells [2]): synergistic | MDR Ratio (IC50 doxorubicin alone / IC50 doxorubicin in presence of modifier) (MCF-7/DOX cells [1]): 15.2 | relative anti-MDR potency of trans versus cis isomer (MCF-7/DOX cells [1]): 3 fold | antagonism of MDR (MCF-7/DOX cells [1]; human, mcf-7/dox cells): 15 to 37 fold | effect on accumulation of doxorubicin in the sensitive line (MCF-7 cells): no significant effect | antipsychotic effect (acute schizophrenia): no activity as an anti-psychotic
